Assay results as given in US20230126276A1, “FENTANYL HAPTENS, FENTANYL HAPTEN CONJUGATES, AND METHODS FOR MAKING AND USING” (published 2023).

Legend:
[1] = test system: fentanyl-induced antinociception; settings: mice; 0.05 mg/kg s.c. fentanyl; 30 minutes post-challenge; FIG. 2A
[2] = test system: fentanyl-induced antinociception; settings: rats; 0.1 mg/kg s.c. fentanyl; F4-6 conjugates on sKLH or CRM2; FIG. 5A
[3] = test system: fentanyl-induced respiratory depression and bradycardia; settings: rats, 0.1 mg/kg s.c. fentanyl

Lithium 2-(3-(4-(N-(1-phenethylpiperidin-4-yl)propionamido)phenyl)ureido) acetate
fentanyl-induced antinociception in the hot plate test [1]: effective in significantly reducing (p≤0.0001) | fentanyl antinociception in the hot plate test [2]: effective in significantly reducing | fentanyl respiratory depression (% oxygen saturation) ([3]; FIG. 5B): effective in significantly reducing | fentanyl bradycardia (heart rate) ([3]; FIG. 5C): effective in significantly reducing
